For series [1], the system named is mice. The series is described as follows: Decreased Locomotor Activity (L.M.A.), primary rodent screen. It is filed as in vivo, mouse. The settings on record: po, read-out: L.M.A. ED50 (decreased locomotor activity).
For series [2], the system named is mice. Kind of series: Ptosis (Pto.), primary rodent screen. The class given is in vivo, mouse. Particulars: po, read-out: Pto. ED50 (ptosis).
The subject of series [3] is mice. The series is described as follows: Phenylquinone Writhing (P.Q.W.) test, analgesic activity. The class given is in vivo, mouse. Particulars: 0.5 h, po, read-out: P.Q.W. ED50 (analgesic ED50). The protocol: The analgesic activity of the compounds of the present invention is conveniently determined in a phenylquinone writhing test, as described below:
Phenylquinone Writhing (P.Q.W.):
results given in: mg/kg po/mouse
Groups of at least 10 mice are given phenyl-p-benzoquinone 2.5 mg/kg intraperitoneally 30 minutes after oral administration of graded doses of the test substance. Two or more dose levels are used for each compound. For scoring purposes, a "writhe" is defined as stretching, twisting of a hindleg inward, or contraction of the abdomen. The total number of writhes for each animal, treated and control animals side-by-side, are counted over a 30-minute time interval. […] The P.Q.W. test is widely used as an indicator of potential analgesic activity in man, especially for non-narcotic substances.

Another series is described as follows: Solubility in water. The class given is physicochemical.
The mark [4] stands for this setting: mouse, oral dose producing score of at least -1.
The mark [5] stands for this setting: mouse, phenyl-p-benzoquinone 2.5 mg/kg ip 30 min after dose, 30-minute count.

The results in this text go back to patent US4018930A, “Substituted indolobenzazepines” (Endo Laboratories, Inc., priority 1975, dated 1977).

Counter-ions that a name gives are not always drawn. Where only a bound is given, the exact number is not on record here.

In general, ED50 refers to the midpoint of the dose-response relation. As a reminder, the LD50 is the dose at which mortality reaches 50%. Read a low LD50 as a more toxic substance. For the compound `CC(Cl)=CCN1CC[C@@H]2[C@@H](C1)c1cccc3c1N2c1ccccc1CC3` (racemic) [Example 1, (±)-trans-3-(3-chloro-2-butenyl)-1,2,3,4,4a,8,9,14a-octahydropyrido[4',3':2,3]indolo[1,7-ab][1]benzazepine], the ED50 in the series on mice [1] (setting [4]) was over 300 mg/kg; in the series on mice [2] (mouse, passive ptosis) it was over 300 mg/kg; in the series on mice [3] (setting [5]), 86 mg/kg. The compound further registered an LD50 in the series “in vivo” of over 300 mg/kg.
Regarding `CC(=O)CCN1CC[C@@H]2[C@@H](C1)c1cccc3c1N2c1ccccc1CC3` (racemic) [Example 6, (±)-4-(trans-1,2,3,4,4a,8,9,14a-octahydropyrido[4',3':2,3]indolo[1,7-ab][1]benzazepin-3-yl)-2-butanone], the ED50 is 8 mg/kg in the series on mice [1] (setting [4]); 7.1 mg/kg with mice [2] (mouse, passive ptosis); 1.25 mg/kg in the series with mice [3] (setting [5]). This compound registered an LD50 in “in vivo” of over 324 mg/kg.
In the same order, the values of `CC(=O)CCCN1CC[C@@H]2[C@@H](C1)c1cccc3c1N2c1ccccc1CC3` (racemic) [Example 7, (±)-5-(trans-1,2,3,4,4a,8,9,14a-octahydropyrido[4',3':2,3]indolo[1,7-ab][1]benzazepin-3-yl)-2-pentanone] are 2.6 mg/kg, 1.3 mg/kg, 1.4 mg/kg and over 324 mg/kg.
For `O=C(CCN1CC[C@@H]2[C@@H](C1)c1cccc3c1N2c1ccccc1CC3)c1ccccc1` (racemic) [Example 8, (±)-3-(trans-1,2,3,4,4a,8,9,14a-octahydropyrido[4',3':2,3]indolo[1,7-ab][1]benzazepin-3-yl)propiophenone], the ED50 with mice [1] (setting [4]) was 200 mg/kg; in the series on mice [2] (mouse, passive ptosis), 20 mg/kg; in the series on mice [3] (setting [5]) it was 26 mg/kg. In addition, the LD50 in “in vivo” was over 324 mg/kg.
Take `CC(=O)CN1CC[C@@H]2[C@@H](C1)c1cccc3c1N2c1ccccc1CC3` (relative stereo) [Example 3, (±)-trans-3-acetonyl-1,2,3,4,4a,8,9,14a-octahydropyrido[4',3':2,3]indolo[1,7-ab][1]benzazepipine]: the ED50 was determined as 2 mg/kg in the series with mice [1] (setting [4]); 4 mg/kg with mice [2] (mouse, passive ptosis); 2 mg/kg in the series with mice [3] (setting [5]). In “in vivo”, this compound came in with an LD50 of over 300 mg/kg.
Take `c1ccc2c(c1)CCc1cccc3c4c(n-2c13)CCNC4` [1,2,3,8,9-hexahydropyrido[4',3':2,3]=indolo[1,7ab][1]benzazepine hydrochloride]: the solubility in water entry in “Solubility in water” was “only very slightly soluble in water”.
With `CN(C)CCCN1c2ccccc2Sc2ccc(Cl)cc21` [chlorpromazine (HCl), chlorpromazine, reference compound], the ED50 in the series with mice [1] (Mus musculus) worked out at 5 mg/kg; with mice [2] (Mus musculus) it was 6 mg/kg.
With `COc1ccc2c3c1O[C@H]1[C@@H](O)C=C[C@H]4[C@@H](C2)N(C)CC[C@@]341` [codeine phosphate, reference compound], the ED50 with mice [3] (Mus musculus) was 19 mg/kg.
